Data from patent publication US8795979B2, “Hydrolase enzyme substrates and uses thereof” (General Atomics, priority 2011, dated 2014).

System: aryl alcohol oxidase (AAO)
Assay: Kinetic constants of AAO
Format: biochemical
Conditions: AAO purified from Pleurotus eryngii

COc1ccc(CO)cc1 [p-anisyl-OH]
Kp-anisyl-OH (AAO): 37 ± 8 µM
